# From patent EP4825380A1, “BRAIN-MIGRATING TUMOR TREATMENT AGENT CONTAINING, AS ACTIVE INGREDIENT, N-(4-(4-AMINO-6-ETHYNYL-5-(QUINOLIN-3-YL)-7H-PYRROLO[2,3-D]PYRIMIDIN-7-YL) BICYCLO[2.2.1]HEPTAN-1-YL)-5-METHYLPYRAZINE-2-CARBOXAMIDE OR SALT THEREOF” (dated 2026)
# How the values were obtained:
# [1] = Plasma protein binding, equilibrium dialysis (Test Example 1); settings: mouse plasma, 5 µmol/L, equilibrium dialysis (RED device), 8 hours
# [2] = test system: NIH/3T3 cells expressing EGFR with Ex19del (Del E746-A750), T790M and C797S mutations (ex19del/T790M/C797S) (SEQ ID NO: 2) and luciferase; assay: Efficacy evaluation in mouse brain transplantation model (Test Example 4)
# [3] = Evaluation of brain penetration in mice after single oral administration (Test Example 2)
# P-gp and BCRP = assay: Transcellular transport test in Caco-2 cells for P-gp and BCRP substrate properties (Test Example 7); settings: for Papp Apical to basal: mean ± standard deviation (n = 3)
# [4] = test system: NIH/3T3 cells expressing EGFR with Ex19del (Del E746-A750), T790M and C797S mutations (ex19del/T790M/C797S) (SEQ ID NO: 2); assay: Efficacy evaluation in mouse subcutaneous transplantation model (Test Example 5); settings: for mean tumor volume on Day 11: subcutaneous model, Day 1 until Day 10
# [5] = Brain protein binding, equilibrium dialysis (Test Example 1); settings: mouse brain homogenate, 5000 nmol/g, dilution factor considered
# [6] = Brain penetration (Kp) at 0.5 hours after oral administration (Test Example 3); settings: 0.5 hours after oral administration at a dose of 40 mg/kg
structure (smiles),measurement,setting,value
C#Cc1c(-c2cnc3ccccc3c2)c2c(N)ncnc2n1C12CCC(NC(=O)c3cnc(C)cn3)(CC1)C2,plasma protein unbound rate,[1],0.0008
same,median survival time,"[2]; intracranial model, oral 80 mg/kg/day from Day 8 until Day 56 (control 24.0 days)",56.5 days
same,level of luminescence on Day 21,"[2]; intracranial tumor, oral 80 mg/kg/day from Day 8",1.648 × 10^6 ± 8.929 × 10^5 p/s
same,AUC0-24 Brain,[3]; single oral dose 20 mg/kg,11900 ng·h/g
same,AUC0-24 Plasma,[3]; single oral dose 20 mg/kg,37.3 µg·h/mL
same,AUC0-24 Brain,[3]; single oral dose 40 mg/kg,52800 ng·h/g
same,AUC0-24 Plasma,[3]; single oral dose 40 mg/kg,104 µg·h/mL
same,AUC0-24 Brain,[3]; single oral dose 80 mg/kg,134000 ng·h/g
same,AUC0-24 Plasma,[3]; single oral dose 80 mg/kg,194 µg·h/mL
same,Papp Apical to basal,P-gp and BCRP; 0.01 µmol/L,1.73 ± 0.17 × 10^-6 cm/sec
same,Papp Apical to basal,P-gp and BCRP; 0.1 µmol/L,2.38 ± 0.26 × 10^-6 cm/sec
same,Papp Apical to basal,P-gp and BCRP; 1 µmol/L,3.63 ± 0.35 × 10^-6 cm/sec
same,Papp Apical to basal,P-gp and BCRP; 3 µmol/L,5.56 ± 0.52 × 10^-6 cm/sec
same,substrate for P-gp or BCRP,P-gp and BCRP; judged from Papp ratio less than 2 at 0.01 to 3 µmol/L,not a substrate for P-gp or BCRP
same,mean tumor volume on Day 11,[4]; oral 10 mg/kg/day,378.5 ± 19.6 mm^3
same,mean tumor volume on Day 11,[4]; oral 20 mg/kg/day,155.1 ± 22.9 mm^3
same,mean tumor volume on Day 11,[4]; oral 40 mg/kg/day,69.7 ± 7.5 mm^3
same,mean tumor volume on Day 11,[4]; oral 80 mg/kg/day,34.1 ± 3.9 mm^3
same,brain protein unbound rate,[5],0.0017
same,Kp,[6],0.832
C=CC(=O)Nc1cc(Nc2nccc(-c3cn(C)c4ccccc34)n2)c(OC)cc1N(C)CCN(C)C,mean tumor volume relative to the mean tumor volume of the control group,"[4]; Day 11, oral 25 mg/kg/day",87.2%
same,mean tumor volume on Day 11,[4]; oral 25 mg/kg/day,972.9 ± 82.3 mm^3
C#Cc1cccc(Nc2ncnc3cc(OCCOC)c(OCCOC)cc23)c1,mean tumor volume on Day 11,[4]; oral 80 mg/kg/day,810.8 ± 47.1 mm^3
C#Cc1c(-c2cnc3ccccc3c2)c2c(N)ncnc2n1C12CCC(NC(=O)c3cncnc3)(CC1)C2,Concentration Brain,[6],137 ng/g
same,Concentration Plasma,[6],6340 ng/mL
same,Kp,[6],0.0214
